# Measurements published in PMC7127853 (Bioorganic & Medicinal Chemistry, 2011).
# System: human cytomegalovirus (HCMV) strain AD-169
# Test: Antiviral assay, HCMV AD-169 in HEL cells
# Assay type: cell-based
smiles,measurement,value
"Nc1ncnc2c1ncn2CCOCP(=O)(O)OCCOCCCCCCCCCCO [Compound 7, 2-[(10-Hydroxydecyl)oxy]ethyl ester of 9-[2-(phosphonomethoxy)ethyl]adenine]",Activity against CMV (in words),totally inactive
